Measured values reported in publication PMC6158167, “Structural analysis of HTL and D14 proteins reveals the basis for ligand selectivity in Striga” (Nature Communications, 2018).

Columns and labels:
ShHTL7 L124F/T190F/C194F = assay: YLG competition assay, ShHTL7 triple mutation; format: biochemical, Striga hermonthica; details: from Ki in YLG competition assays
Method: The YLG assays were conducted as previously described[28] with minor modifications. Ten microliters of 0.1 mg mL^−1 ShHTL7 protein in a reaction buffer containing 20 mM HEPES, pH 7.0, 150 mM NaCl and 80 μL of reaction buffer were mixed in a 96-well black plate (Grenier). Ten microliters of 10 μM YLG was added to the solution and incubated at 25 °C for 1 h prior to measurement. The fluorescence intensity was measured using a SpectraMax® iD5 Multi-Mode Microplate Reader (Molecular Devices). Measurements were performed at room temperature under a 480 nm excitation wavelength, a 530 nm emission wavelength, a manual PMT of 500, and a read height of 1.00 mm. The fluorescence can be detected if YLG is hydrolyzed. The RFU (relative fluorescence unit) was calculated by subtracting the fluorescence of the buffer (without protein) and then dividing by the fluorescence of wild-type ShHTL7. […]
in a previous study6, the enzymes were incubated with YLG at the indicated concentrations. The RFU (relative fluorescence units) was calculated by dividing the fluorescence of hydrolysis at 10 μM YLG by wild type (WT) ShHTL7 after subtracting the fluorescence of the buffer. The Km values were calculated from a Michaelis-Menten plot using GraphPad Prism software and are shown in the plots. […]
The inhibition constant Ki was calculated according to the Cheng-Prusoff equation7. […]

AtHTL–AtMAX2 interaction [1] = target: T1, AtHTL–AtMAX2 interaction (Arabidopsis thaliana, UniProt Q9SZU7)
T1 sequence (Q9SZU7 1-270): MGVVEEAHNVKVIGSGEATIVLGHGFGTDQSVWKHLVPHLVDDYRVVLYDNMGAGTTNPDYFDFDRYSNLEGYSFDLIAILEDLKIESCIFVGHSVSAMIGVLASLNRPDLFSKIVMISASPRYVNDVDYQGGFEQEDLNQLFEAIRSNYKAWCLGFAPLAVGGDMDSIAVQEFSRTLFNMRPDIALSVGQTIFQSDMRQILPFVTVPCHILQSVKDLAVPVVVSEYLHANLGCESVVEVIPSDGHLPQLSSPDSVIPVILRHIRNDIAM
Source text: (§1) Full-length sequences of ShD14, ShHTL1, ShHTL3, ShHTL4, ShHTL7, and AtHTL were cloned into the pGBKT7 vector as bait (Clontech), and the coding regions of ShMAX2 and AtMAX2 were cloned into the pGADT7 vector as prey (Clontech). MAX2 was supposed to be unstable without ASK1. Therefore, AtASK1 was cloned into the N terminus of ShMAX2 and AtMAX2 with a 16-residue linker for co-expression. The bait and prey plasmids were co-transformed into the yeast (Saccharomyces cerevisiae) strain Y2HGold (Clontech) by the lithium acetate-mediated method. The presence of both plasmids was confirmed by growth on SD/-Leu/-Trp (-LT) plates. […] The plates were incubated for 5 days at 30 °C.
(§2) and AtHTL were detected using an anti-GST antibody, as indicated by the black arrows. (b)
(§3) 1/10, 1/20, 1/50, 1/100, 1/1000) of transformed yeast cells was plated on control medium (SD/-
(§4) Leu/-Trp; -LT) and selective medium (SD/-Leu/-Trp/-His/-Ade; -LTHA) in the absence or
(§5) (1 picture or pasted object on this page, not shown here)

AtHTL–ShMAX2 interaction = AtHTL–ShMAX2 interaction (Arabidopsis thaliana, UniProt Q9SZU7)
Source text: as §1, §2, §3, §4, §5

[2] = test system: ShHTL1-AtMAX2 interaction
Source text: as §1, §2, §3, §4, §5

[3] = test system: ShHTL1–ShMAX2 interaction
Source text: as §1, §2, §3, §4, §5

AtHTL–AtMAX2 interaction [4] = target: T1, AtHTL–AtMAX2 interaction; remark: listed apart in the source
Method: as §2, §3, §4, §5

CC1=CC(O/C=C2/C(=O)OC3c4ccccc4CC23)OC1=O (racemic) [rac-GR24]
decrease in rac-GR24 binding affinity, L124F/T190F/C194F vs ShHTL7 (ShHTL7 L124F/T190F/C194F): > 100 fold | ligand effect on AtHTL-AtMAX2 cotransformant growth (AtHTL–AtMAX2 interaction [1]): better growth was observed in the presence of rac-GR24 than the control and KAR1 | ligand effect on AtHTL-ShMAX2 cotransformant growth (AtHTL–ShMAX2 interaction): better growth was observed in the presence of rac-GR24 than the control and KAR1 | ligand effect on ShHTL1-AtMAX2 interaction [2]: significant difference between the control and the presence of KAR1 or rac-GR24 was not observed | ligand effect on ShHTL1-ShMAX2 interaction [3]: significant difference between the control and the presence of KAR1 or rac-GR24 was not observed | ligand effect on AtHTL-AtMAX2 interaction (AtHTL–AtMAX2 interaction [4]): enhanced by rac-GR24
